Experiment [1] relates to NCI-N87. Nature of the experiment: In vitro cytotoxicity (CCK-8) in NCI-N87 cells. The format is cell-based, human. To be noted: NCI-N87 cell line, 120 hours incubation. As for the experimental part: (§1) Cytotoxic potencies of the compounds are assessed in flat-bottomed 96-well cell culture plates (Corning Costar) using cell counting Kit-8 (CCK-8) assay (Shanghai Life Lab Biotech Co., Ltd.). Briefly, human tumor cells (1,000-10,000 cells/well, depending on the cell line), in the appropriate culture medium are incubated, with the compounds, or with conjugates in the presence or absence of an excess of the corresponding unconjugated antibodies, for 120 hours, at 37° C., 5% CO2.
(§2) Dispensed 175 μL cell suspension in 96-well plate at 1500 cells per well and incubate for 24 hours in a humidified incubator (37° C., 5% CO2). Added 25 μL various concentrations of compound as a 5× solution into the cell culture medium (Fetal bovine serum, Invitrogen) in the plate and incubated for 120 hours in the incubator. Thawed CCK-8 on the bench top or in a 37° C. water bath, added 10 μL of CCK-8 to each well of the incubated plate (be careful not introducing air bubbles into the wells since they would interfere with the O. D. reading) and then further incubated for 1-4 hours in the incubator. Measured the absorbance at 450 nm using a SpectraMax i3x Microplate Reader and calculated the cell inhibition rate. The IC50 curves were generated along with the IC50 values by using GraphPad Prism software.

Experiment [2] concerns BR 474. The experiment is described as follows: In vitro cytotoxicity (CCK-8) in BR 474 cells. The format is cell-based, human. Particulars: BR 474 cell line, 120 hours incubation. Here is the method:
as §1, §2

The test system of experiment [3] is JIMT-1 tumor cells. The experiment is described as follows: In vivo efficacy of the ADCs in JIMT-1 CDX model. Details: species or system mouse. Particulars: for TGI (%) (day 28): Scid-Beige mice.
Experiment [4] deals with NCI-N87 tumor cells. Nature of the experiment: In vivo efficacy of the ADCs in NCI-N87 CDX model. Details: species or system mouse.
Where [5] appears, read: 0.3 mg/Kg single i.v., day 28 (Table 8).
Setting [6] is: 1 mg/Kg single i.v., day 28 (Table 8).
Setting [7] is: 1 mg/Kg single i.v., day 28 (Table 9).
Setting [8] is: 3 mg/Kg single i.v., day 28 (Table 9).

In general, IC50 refers to the concentration at which inhibition is half-maximal.

On to “trastuzumab-vedotin-DAR4: trastuzumab vedotin ADC with DAR4, comparator in Table 5 [reference compound]”, for which the half-inhibitory concentration (IC50) came to 0.08 nM in experiment [1] and 0.055 nM in experiment [2].

For “trastuzumab meditecan (DAR8) [reference compound]”, the concentration for half-maximal inhibition (IC50) in experiment [1] is 2.5 nM; in experiment [2], over 1000 nM. Moreover, the Comments result in experiment [3] (setting [5]) was “inactive”; in experiment [3] (setting [6]), “active”; in experiment [4] (0.3 mg/Kg single i.v., day 30 (Table 6)), “inactive”; in experiment [4] (1 mg/Kg single i.v., day 30 (Table 6)), “active”. Moreover, the antitumor activity entry was “dose-dependent antitumor activity” in experiment [3] (0.3, 1 and/or 3 mg/kg, FIG. 3) and “dose-dependent antitumor activity” in experiment [4] (0.3, 1 and/or 3 mg/kg, FIG. 1). Moreover, the “TGI (%) (day 28)” value is given as 20.8% in experiment [3] (setting [5]) and 56.8% in experiment [3] (setting [6]). Also, the “TGI (%) (day 30)” value in experiment [4] (Balb/c-Nude mice, 0.3 mg/Kg single i.v., day 30 (Table 6)) worked out at 37.1%.

For the substance “trastuzumab-MB3-DAR4 [reference compound]”, the Comments result in experiment [3] (setting [7]) is “inactive”; in experiment [3] (setting [8]), “inactive”; in experiment [4] (1 mg/Kg single i.v., day 44 (Table 7)), “active”; in experiment [4] (3 mg/Kg single i.v., day 44 (Table 7)), “highly active”. Also, the antitumor activity result is “dose-dependent antitumor activity” in experiment [3] (1 & 3 mg/kg, FIG. 4) and “dose-dependent antitumor activity” in experiment [4] (1 & 3 mg/kg, FIG. 2). Further, the “TGI (%) (day 28)” value in experiment [3] (setting [7]) is listed as 19.4%; in experiment [3] (setting [8]), 30.0%. For the same substance, the “TGI (%) (day 44)” value in experiment [4] (Balb/c-Nude mice, 1 mg/Kg single i.v., day 44 (Table 7)) amounted to 68.6%.

For the origin of these results see patent US20240108744A1, “AURISTATIN DERIVATIVES AND CONJUGATES THEREOF” (priority 2022, published 2024).
